Ab-91 heavy chain CDR variants: yeast mating affinities

Target: peptide PDVDLGDISGINAS, taken from heptad repeat 2 (HR2) of SARS-CoV-2 spike.

Parent: Ab-91, a human scFv built as VL, three GGGGS repeats, VH. Only the CDRs of the heavy chain vary.
VL: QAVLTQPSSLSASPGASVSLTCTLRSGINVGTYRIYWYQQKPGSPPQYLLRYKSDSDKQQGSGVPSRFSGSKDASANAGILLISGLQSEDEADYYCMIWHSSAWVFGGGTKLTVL
VH: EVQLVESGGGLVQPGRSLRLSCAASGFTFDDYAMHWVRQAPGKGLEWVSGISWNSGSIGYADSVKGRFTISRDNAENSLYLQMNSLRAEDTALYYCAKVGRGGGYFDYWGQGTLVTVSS

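The parent was found by panning a naive human phage display library on the peptide. AAYL51 was designed without a model: most single CDR substitutions and a random sample of double and triple ones. The assay is AlphaSeq: two haploid yeast populations carry antibody and antigen on their surface. Pairs that bind mate more often; barcode pairs of the diploids are counted by sequencing. Each replicate has its own calibration line, from reference interactions of the BCL2 family. Mating was done three times.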

Variants are written as CDR1, CDR2 and CDR3 of the heavy chain (limits as in the source). Parent: GFTFDDYAMH, GISWNSGSIGYADSVK, VGRGGGYFDY. Kd is apparent (estimated from mating counts) and averaged on the log scale over replicates with a signal. Smaller is tighter. "nd" means that the variant was in the library but no mating with the target was seen in any replicate; the authors take this as a sign of poor binding, and no number exists. Order: sorted from the lowest average up, undetected variants last. Background: pairings of library AAYL51 with three empty control strains gave a value in 21% of cases (median 34 µM, 5th percentile 1.8 µM). Values in that range, when seen in few replicates, are hard to tell from nonspecific mating.

140 nM (3 of 3 replicates): GFTFDDYAMH | GISWNSGSIGMADSVK | VGRGGGIFPY.
320 nM (1 of 3 replicates): GFTFDDYAMH | GISWNSGSIGYADSVK | TGFGGGYSDY.
2.7 µM (1 of 3 replicates): GFTFDDYAMH | GISWNHGSIGYADSVK | VGNGGGIFDY.
5.3 µM (1 of 3 replicates): GFTFDDYAWH | GISWNSGSIGIADSYK | VGRGGGYFDY.
14 µM (2 of 3 replicates): GFTFDDYAMG | GISWNSGSIGYAVSVK | VGRGGGYFDY.
23 µM (1 of 3 replicates): GFTFDDYAMH | GISWDSGSIGYADSVK | VGRGGGYFCY.
25 µM (2 of 3 replicates): GFTFDDYAMH | GISWNSISIGQADSVK | VGRGGGCFDY.
29 µM (1 of 3 replicates): GFPFKDYAMH | GISWNSGSISYADSVK | VGRGGGYFDY.
35 µM (1 of 3 replicates): GFRCDDNAMH | GISWNSGSIGYADSVK | VGRGGGYFDY.
37 µM (2 of 3 replicates): GFTFDDYAMH | GPSWNSGSIGYADSVK | VQRGGGYFDY.
44 µM (1 of 3 replicates): GFTFDDWHMH | KISWNSGSIGYADSVK | VGRGGGYFDY.
77 µM (1 of 3 replicates): GFTFDDYAMH | GIIWNSGDCGYADSVK | VGRGGGYFDY.
86 µM (2 of 3 replicates): GFTFDDYAMH | KISWNSGSIQYADSVK | VGRGGGYTDY.
110 µM (2 of 3 replicates): GFTFDDYAMA | GISWNSGSIGYADSVW | VGRGGGYADY.
480 µM (2 of 3 replicates): GFTFDDYAMH | GISWNDGSIGYARSVK | VGRGKGYFDY.
nd (0 of 3 replicates): GFTFDHYAMH | GISWNSGSIGYNDSVG | VGRGGGYFDY.
nd (0 of 3 replicates): GFTFDDYAMI | GIDWNSGEIGYADSVK | VGRGGGYFDY.
nd (0 of 3 replicates): GFTFDDCASH | GISWNSGSIGYPDSVK | VGRGGGYFDY.
nd (0 of 3 replicates): GFMFDDYAMH | GISWNSGSIGYALSVK | VGRGGGYFDF.
nd (0 of 3 replicates): GFTFDDYAMW | GISWNSGSIGTATSVK | VGRGGGYFDY.
nd (0 of 3 replicates): GFTFDDYAMH | GISWNSGSIGQVDSVK | VGRGGQYFDY.
nd (0 of 3 replicates): GFTFDDYAML | GISWNSGSITYADSVK | DGRGGGYFDY.
nd (0 of 3 replicates): GFTFDDYAGH | GIQWNSGSIGNADSVK | VGRGGGYFDY.
nd (0 of 3 replicates): GWTFDDYAMT | GISWNSGSIGYADSVK | VGRGGGYFDY.
nd (0 of 3 replicates): GFTFDDYAMH | GISWNSGSIGYADSVK | GGCGGGYFDI.
nd (0 of 3 replicates): GFEFDDYAMH | GISWNSGSIGYADSVK | VGCGGGYCDY.
nd (0 of 3 replicates): GFTFDDYAMH | GISWNSGSIGYADSVS | VGRGGGYFPY.
nd (0 of 3 replicates): AFTFDDYAMH | GISWNSGSIPYADSVK | VGRRGGYFDY.
nd (0 of 3 replicates): GFTFDDYAMH | GIVWNSGQIGYAMSVK | VGRGGGYFDY.
nd (0 of 3 replicates): GFTFDWYAMH | GISWNSGSISPADSVK | VGRGGGYFDY.
nd (0 of 3 replicates): GFTFDDMAMP | GISWNSGSIGYADFVK | VGRGGGYFDY.

For reference, 5 entries of the list once more:

GFTFDHYAMH | GISWNSGSIGYNDSVG | VGRGGGYFDY: nd (0 of 3 replicates).
GFPFKDYAMH | GISWNSGSISYADSVK | VGRGGGYFDY: 29 µM (1 of 3 replicates).
GFTFDDWHMH | KISWNSGSIGYADSVK | VGRGGGYFDY: 44 µM (1 of 3 replicates).
GFMFDDYAMH | GISWNSGSIGYALSVK | VGRGGGYFDF: nd (0 of 3 replicates).
GFTFDWYAMH | GISWNSGSISPADSVK | VGRGGGYFDY: nd (0 of 3 replicates).

Source: Engelhart et al. 2022 (doi:10.1038/s41597-022-01779-4), MIT Lincoln Laboratory and A-Alpha Bio; data file from the FLAb repository.